Earlier results in PMC3385930.

Target: Adducin 425-461 (Homo sapiens) (UniProt P35612)

Kd: 230 nM
Substance: Calmodulin (from UniProt P0DP23)
